Source: patent publication US20210052557A1, “COMPOSITIONS FOR TREATING INFECTIVE ARTERIAL DISEASES AND RELATED CONDITIONS” (CENTRE FOR DIGESTIVE DISEASES, priority 2018, published 2021)

Assay: Vitamin D blood levels in patients at high doses
Format: in vivo, human
Details: blood levels of around 200 to 375 nmol/l
Description: In alternative embodiments, the pharmaceutical compositions, formulations, or products of manufacture further comprises: (a) a vitamin E, a tocotrienol, a natural tocopherol or a tocochromanol, a vitamin D, or any combination thereof, wherein optionally the vitamin D is formulated for use in doses of up to about 5000 to 20,000 units per day, optionally to achieve blood levels of about 150 to 375 nmol/l; (b) a penicillamine, or DEPEN™ or CUPRIMINE™; (c) an acetylcysteine or N-acetylcysteine (NAC), or ACETADOTE™, FLUIMUCIL™, MUCOMYST™; or (d) any combination of (a) to (c). […] These levels are non-toxic, for toxicity to occur much higher levels need to be reached.

In the case of Vitamin D, the “toxicity of these blood levels” value is reported as “non-toxic”.
